Laboratory results published in PubChem BioAssay (NCI).
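Five compound concentrations were applied to cells in 96-well plates for 48 hours; endpoints were derived by simple linear interpolation of the resulting dose-response curve. GI50 is the concentration that inhibits growth by half.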

Key:
Experiment in all cases: DTP human tumour cell line panel, 48 h; in the data active = GI50 below about 0.43 µM; inactive = the rest
[1] = tested on: ACHN renal
[2] = tested on: DU-145 prostate
[3] = tested on: U251 CNS

Measured: GI50

CC1=C[C@H]2O[C@@H]3[C@H](O)[C@@H](O)[C@](C)(C2(COC(=O)CCl)CC1)[C@@]31CO1 (stereo partly drawn)
inactive: [1] 1650 nM | [2] 1840 nM | [3] 482 nM
